Data reported in patent US7732162.

Legend:
H-Gln-Ala-Ala-NH2 = target: T1, H-Gln-Ala-Ala-NH2
T1 chain: QAA

[Gln^3]Aβ3-11a = target: T2, [Gln^3]Aβ3-11a
T2 chain: QFRHDSGYE

B1: recombinant human glutaminyl cyclase (QC) (protein)
chain: EEKNYHQPAILNSSALRQIAEGTSISEMWQNDLQPLLIERYPGSPGSYAARQHIMQRIQRLQADWVLEIDTFLSQTPYGYRSFSNIISTLNPTAKRHLVLACHYDSKYFSHWNNRVFVGATDSAVPCAMMLELARALDKKLLSLKTVSDSKPDLSLQLIFFDGEEAFLHWSPQDSLYGSRHLAAKMASTPHPPGARGTSQLHGMDLLVLLDLIGAPNPTFPNFFPNSARWFERLQAIEHELHELGLLKDHSLEGRYFQNYSYGGVIQDDHIPFLRRGVPVLHLIPSPFPEVWHTMDDNEENLDESTIDNLNKILQVFVLEYLHL
B1 gave a KM (H-Gln-Ala-Ala-NH2) of 87 µM and a KM (determined in absence of DMSO) ([Gln^3]Aβ3-11a) of 87 ± 3 µM.
